Assay results published in patent US20100130599A1, “CYP2C9*8 Alleles Correlate With Decreased Warfarin Metabolism And Increased Warfarin Sensitivity” (priority 2008, published 2010).
Like-named read-outs stand apart in the source and are kept apart here.

Description: A total of 226 African American patients having demographic and clinical parameters as depicted in Table 1 were studied.
Patients were enrolled from the pharmacist-managed anticoagulation clinics at the University of Illinois Medical Center at Chicago and at the University of Florida in Gainesville. […] Aquilante, C. […] Pharmacogenomics 8, 1535-44 (2007). Patients with a history of liver dysfunction or serum transaminase levels greater than 3 times the upper limit of normal were excluded.
After obtaining written informed consent and authorization for medical record review, a buccal cell sample was collected for genetic analysis, as previously described. Andrisin, T. E., Humma, L. M. & Johnson, J. A. Collection of genomic DNA by the noninvasive mouthwash method for use in pharmacogenetic studies. Pharmacotherapy 22, 954-60 (2002). Demographic, clinical, and social history were assessed through patient interview and review of the medical record. This study was approved by the Institutional Review Board at each institution.
Genomic DNA was isolated from buccal cells using a commercially available kit (PureGene,® Qiagen, Valencia, Calif.) according to kit manufacturer instructions. The CYP2C9 R144C (*2), […] (*3) and D360E (*5) alleles and VKORC1 −1639G>A genotype were determined as previously described. Aquilante, C. […] The VKORC1 −4451A>C, 497G>T, and 3730A>G genotypes, and APOE 112C>T and 158C>T genotypes were determined by PCR and pyrosequencing. […]
Prior to determination of additional genotypes, genomic DNA was amplified by the whole genome amplification (WGA) technique, using the REPLI-g midi kit (Qiagen). […] Proc Natl Acad Sci USA 99, 5261-6 (2002) The fidelity of amplification was verified by comparing genotypes for CYP2C9*2, *3, *5 and VKORC1 −1639G>A determined before and after WGA. […] The CYP2C9*8 genotype was determined by bi-directional DNA sequencing at Agencourt Biosciences after uniplex PCR amplification performed by Osmetech Molecular Diagnostics.
Data are expressed as numbers (percentages), mean±SD, or median (inter-quartile range). […]

Structure (SMILES): CC(=O)CC(c1ccccc1)c1c(O)c2ccccc2oc1=O (stereo not drawn) [warfarin]
- Median (IQR) dose (CYP2C9 any variant, n=52): 33.8 (28.0-40.6) mg/week
- Median (IQR) dose (VKORC1 −1639G > A AA, n=4): 33.8 (27.8-35.3) mg/week
- Median (IQR) dose (VKORC1 −1639G > A GG, n=189): 42.5 (33.8-56.3) mg/week
